Consider 30 compounds from PubChem BioAssay (NCI).

“And” between values parts separate entries of the source, which are not always exact repeats. Equal values may be shown once. This is a selection; strong and weak results do not stand in their true shares.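 Results are percent growth after 48 hours of single-concentration exposure. 100 means growth as in untreated cells, lower positive values show inhibition; negative values down to -100 show cell death.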 Some salts or complexes appear as unconnected parts, following the source record. The source made the active and inactive calls. Rule for the calls: active = growth percent below 10; inactive = the rest.

For this experiment, the system named is DU-145 prostate. In words: NCI-60 one-dose screen, 48 h (100 = growth as untreated, 0 = no growth, -100 = all killed). The settings on record: 10 µM.
`CCCOP(=S)(Cl)OCCC`: the growth is inactive: 111%.
The result for `CN(C)CCS` reads inactive: 99.7% and inactive: 115%; that for `O=C(O)C1(O)c2ccccc2-c2ccccc21`, inactive: 107%.
Take `Nc1cccc(Cl)c1.O=[N+]([O-])c1cc([N+](=O)[O-])c(O)c([N+](=O)[O-])c1`: the growth was inactive: 113%.
The result for `OCCSCCO` reads inactive: 117%; that for `Nc1cc([As](Cl)Cl)cc(N)c1O`, inactive: 102%.
In the case of `O=[N+]([O-])N(CCN(CC(Br)([N+](=O)[O-])[N+](=O)[O-])[N+](=O)[O-])CC(Br)([N+](=O)[O-])[N+](=O)[O-]` it was inactive: 113%; in that of `O=C1N([N+](=O)[O-])CCN1[N+](=O)[O-]`, inactive: 115%; in that of `CC[N+]([O-])(CC)Cc1ccccc1.O=[N+]([O-])c1cc([N+](=O)[O-])c(S(=O)(=O)O)c([N+](=O)[O-])c1`, inactive: 101%.
In the case of `CP(=O)(OCCCl)N(CCCl)CCCl` (stereo not given) it was inactive: 107%; in that of `CN(CCO)CCCl.O=[N+]([O-])c1cc([N+](=O)[O-])c(O)c([N+](=O)[O-])c1`, inactive: 105%; in that of `CCN(CC)CCOC(=O)C(O)(c1ccccc1)c1cc(C)c(C)c(C)c1C` (stereo not given), inactive: 100%.
As for `CCN(CC)CCOC(=O)C(O)(c1ccccc1)c1cc(C)cc(C)c1C` (stereo not given), the growth was inactive: 113%.
With `CCN(C)CC.O=[N+]([O-])c1cc([N+](=O)[O-])c(O)c([N+](=O)[O-])c1`, the growth was inactive: 108%.
The result for `O=C(Cl)c1c([N+](=O)[O-])cc([N+](=O)[O-])cc1[N+](=O)[O-]` reads inactive: 28.3%; that for `COc1ccc(C(O)(C(=O)OCCN2CCCCC2)c2ccc(OC)cc2)cc1`, inactive: 96%.
Take `Cc1c([N+](=O)[O-])c(C)c([N+](=O)[O-])c(C)c1[N+](=O)[O-]`: the growth was inactive: 109%.
In the case of `O=C(OCCN1CCCCCCCC1)C(O)(c1ccccc1)c1ccccc1` it was inactive: 105%; in that of `CN/C(N)=N/[N+](=O)[O-]`, inactive: 109%.
The result for `CCOC(=O)Nc1c([N+](=O)[O-])cc([N+](=O)[O-])cc1[N+](=O)[O-]` reads inactive: 105%; that for `O=[N+]([O-])c1cc([N+](=O)[O-])c(Nc2nnnn2CCO)c([N+](=O)[O-])c1`, inactive: 127%.
In the case of `Cc1c([N+](=O)[O-])cc([N+](=O)[O-])c(Br)c1[N+](=O)[O-]` it was inactive: 87.6%; in that of `CN1CCN(CCOC(=O)C(O)(c2ccccc2)c2ccccc2)CC1`, inactive: 110%; in that of `O=[N+]([O-])c1cc([N+](=O)[O-])c(O)c([N+](=O)[O-])c1.c1ccc([I+]c2ccccc2)cc1`, inactive: 90%.
For the compound `Nc1cc([N+](=O)[O-])cc([N+](=O)[O-])c1O`, the growth is inactive: 113% and inactive: 108%.
As to `CC(C)N1CCN(CCOC(=O)C(O)(c2ccccc2)c2ccccc2)CC1`, the growth is inactive: 112%.
The result for `CC(C)N(CCCl)C(C)C` reads inactive: 108%; that for `O=[N+]([O-])OCCOc1ccc([N+](=O)[O-])cc1[N+](=O)[O-]`, inactive: 120%.
The result for `O=[N+]([O-])N(CCOC(N(F)F)(N(F)F)N(F)F)CC([N+](=O)[O-])([N+](=O)[O-])[N+](=O)[O-]` reads inactive: 111%.
Take `NN/C(N)=N/[N+](=O)[O-]`: the growth was inactive: 123%.
